Here are results for three compounds from ChEMBL document CHEMBL5727089, “7-beta-alkyl analogs of orvinols” (2018).

The chains behind the UniProt entries cited, without tags or fusion partners.
UniProt P41145, whole entry: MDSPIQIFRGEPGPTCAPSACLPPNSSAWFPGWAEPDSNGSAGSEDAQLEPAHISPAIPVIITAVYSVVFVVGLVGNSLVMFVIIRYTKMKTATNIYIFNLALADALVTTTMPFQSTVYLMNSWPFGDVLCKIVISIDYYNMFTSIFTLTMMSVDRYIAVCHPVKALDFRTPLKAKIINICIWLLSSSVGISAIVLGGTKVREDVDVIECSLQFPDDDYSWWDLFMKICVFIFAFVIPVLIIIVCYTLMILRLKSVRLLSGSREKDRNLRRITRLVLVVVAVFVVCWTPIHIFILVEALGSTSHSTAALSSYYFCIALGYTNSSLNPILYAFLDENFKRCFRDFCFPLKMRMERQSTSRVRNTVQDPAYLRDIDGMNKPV
UniProt P35372, whole entry: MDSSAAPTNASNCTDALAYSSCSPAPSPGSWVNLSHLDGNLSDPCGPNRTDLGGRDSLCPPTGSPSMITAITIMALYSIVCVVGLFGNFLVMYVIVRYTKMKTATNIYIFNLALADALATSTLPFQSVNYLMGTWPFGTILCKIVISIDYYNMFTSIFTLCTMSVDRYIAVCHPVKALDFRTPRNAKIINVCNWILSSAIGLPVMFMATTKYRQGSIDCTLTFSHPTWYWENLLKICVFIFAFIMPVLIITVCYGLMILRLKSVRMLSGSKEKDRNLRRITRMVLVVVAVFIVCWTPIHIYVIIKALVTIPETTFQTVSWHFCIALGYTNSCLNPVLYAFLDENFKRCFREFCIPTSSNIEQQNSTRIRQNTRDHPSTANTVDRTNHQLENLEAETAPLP

Assay [1] addresses Kappa-type opioid receptor (Homo sapiens, UniProt P41145). Briefly: Receptor Binding Assay : κ-Opioid: Receptor Binding Assay Procedures: Membranes from HEK-293, CHO or U-2 OS cells expressing the recombinant human kappa opioid receptor (κ) were prepared by lysing cells in ice cold hypotonic buffer (2.5 mM MgCl2, 50 mM HEPES, pH 7.4) (10 mL/10 cm dish) followed by homogenization with a tissue grinder/Teflon pestle. Membranes from a cell line naturally expressing k.

The target of assay [2] is Mu-type opioid receptor (Homo sapiens, UniProt P35372). Briefly: Receptor Binding Assay : μ-Opioid:Radioligand dose-displacement binding assays for μ-opioid receptors used 0.3 nM [3H]-diprenorphine (Perkin Elmer, Shelton, Conn.), with […] membrane protein/well in a final volume of 500 μl binding buffer (10 mM MgCl2, 1 mM EDTA, 5% DMSO, 50 mM HEPES, pH 7.4). Reactions were carried out in the absence or presence of increasing concentrations of unlabeled naloxone.

Turning to `COC12CC[C@@]3(C[C@]1(C)COCc1ccoc1)[C@H]1Cc4ccc(O)c5c4[C@@]3(CCN1CC1CC1)[C@H]2O5`, the EC50 in assay [1] came to 0.037 nM.
With `COC12CC[C@@]3(C[C@]1(C)CNCc1ccccc1)[C@H]1Cc4ccc(O)c5c4[C@@]3(CCN1CC1CC1)[C@H]2O5`, the EC50 in assay [2] stood at 3.39 nM.
On the same count and under the same terms, next, `COC12CC[C@@]3(C[C@]1(C)COCc1ccccc1)[C@H]1Cc4ccc(O)c5c4[C@@]3(CCN1CC1CC1)[C@H]2O5`: 0.55 nM.

By EC50 is commonly meant the concentration giving half of the maximal effect.
